Laboratory results as given in patent US7951782B2, “Composition effective to prevent or treat adult disease” (Maruha Nichiro Seafoods, Inc, priority 2005, dated 2011).

Chains of the proteins cited; added tags and fusions are not shown.
UniProt P80457, whole entry: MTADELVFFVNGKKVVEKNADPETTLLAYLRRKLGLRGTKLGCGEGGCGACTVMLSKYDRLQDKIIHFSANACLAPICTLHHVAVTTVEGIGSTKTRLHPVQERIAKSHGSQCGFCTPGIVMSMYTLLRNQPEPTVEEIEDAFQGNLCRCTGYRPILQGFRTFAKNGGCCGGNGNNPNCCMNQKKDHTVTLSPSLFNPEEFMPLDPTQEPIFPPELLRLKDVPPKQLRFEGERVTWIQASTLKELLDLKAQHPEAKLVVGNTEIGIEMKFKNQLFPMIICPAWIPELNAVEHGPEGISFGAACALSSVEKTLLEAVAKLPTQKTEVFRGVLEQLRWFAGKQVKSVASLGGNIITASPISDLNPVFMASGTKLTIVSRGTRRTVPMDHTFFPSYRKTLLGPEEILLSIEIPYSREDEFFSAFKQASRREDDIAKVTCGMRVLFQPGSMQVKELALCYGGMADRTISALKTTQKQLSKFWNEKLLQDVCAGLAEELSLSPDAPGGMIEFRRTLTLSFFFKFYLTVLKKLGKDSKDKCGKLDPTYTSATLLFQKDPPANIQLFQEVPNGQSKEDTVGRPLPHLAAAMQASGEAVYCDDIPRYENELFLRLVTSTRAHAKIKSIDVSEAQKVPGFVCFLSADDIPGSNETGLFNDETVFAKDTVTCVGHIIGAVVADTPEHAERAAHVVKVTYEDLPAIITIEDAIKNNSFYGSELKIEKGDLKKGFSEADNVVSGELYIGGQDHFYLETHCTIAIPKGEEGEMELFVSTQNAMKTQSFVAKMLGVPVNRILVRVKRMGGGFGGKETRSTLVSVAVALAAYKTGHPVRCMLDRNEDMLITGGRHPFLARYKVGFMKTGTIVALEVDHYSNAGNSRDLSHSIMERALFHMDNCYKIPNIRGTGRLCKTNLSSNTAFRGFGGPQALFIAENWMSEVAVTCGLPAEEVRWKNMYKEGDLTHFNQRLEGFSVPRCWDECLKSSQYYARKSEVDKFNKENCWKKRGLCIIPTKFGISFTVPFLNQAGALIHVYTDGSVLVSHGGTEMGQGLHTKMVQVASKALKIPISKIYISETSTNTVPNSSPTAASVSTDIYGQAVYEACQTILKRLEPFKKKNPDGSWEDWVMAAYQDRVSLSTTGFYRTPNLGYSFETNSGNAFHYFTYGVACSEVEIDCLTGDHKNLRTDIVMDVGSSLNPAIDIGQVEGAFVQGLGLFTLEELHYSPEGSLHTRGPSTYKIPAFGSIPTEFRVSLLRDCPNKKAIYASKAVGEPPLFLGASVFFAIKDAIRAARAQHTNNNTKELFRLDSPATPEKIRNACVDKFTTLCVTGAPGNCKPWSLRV

Target: T1, xanthine oxidase (XO) of cow's milk (Bos taurus, UniProt P80457)
T1 construct: xanthine oxidase (XO) of cow's milk (from Wako Pure Chemical); purchased Wako Pure Chemical; host or cells: cow's milk (natural source)
Assay: Uric acid synthetase inhibitory activity of peptides that are part of SEQ ID No. 1
Assay type: biochemical
Settings: 15 μM xanthine, 50 mM tris-HCl pH 7.4, 37° C., 10 minutes
Method: Each of the peptides synthesized was added to 1 ml of a 50 mM tris-HCl buffer (pH 7.4) containing 15 μM xanthine as an enzyme substrate to prepare a reaction system. To the reaction system was added 0.1 unit (containing 100 μl of 25 units/25 ml enzyme solution) of xanthine oxidase (XO) of cow's milk (from Wako Pure Chemical), followed by allowing the system to react at 37° C. for 10 minutes. The amount of uric acid produced from xanthine by the action of xanthine oxidase was evaluated in terms of changes in optical density (OD, at 292 nm), from which the enzyme activity was calculated from formula previously given.

Compound | xanthine oxidase activity in system containing the peptide
NC(=O)C[C@H](NC(=O)[C@@H](N)CC(=O)O)C(=O)N[C@@H](Cc1ccc(O)cc1)C(=O)O [DNY, Asp-Asn-Tyr] | inhibited
CC(C)C[C@H](N)C(=O)N[C@@H](CC(=O)O)C(=O)N[C@@H](CC(N)=O)C(=O)O [LDN, Leu-Asp-Asn] | inhibited
